Laboratory results published in patent US20170172945A1, “METHODS OF TREATING BREAST CANCER” (Mitchell Woods Pharmaceuticals, Inc., priority 2014, published 2017).

Key:
MCF-7 cells = assay: [3H]-thymidine incorporation assay in MCF-7 cells; format: cell-based, Human; conditions: serum-starved, 24 hours, with MNF
Description: (§1) Cells were seeded in 12-well plates at approximately 50,000 cells/well and incubated at 37° C. After 24 hours, the wells were rinsed with PBS and replaced with serum-free medium containing the appropriate concentration of the test compounds. After another 24-hour incubation at 37° C., 1 μCi of [^3H]-thymidine was added to each well and incubated at 37° C. for 16 hours. […] The lysate was then mixed with 3 mL of liquid scintillation cocktail (Beckman Coulter, Inc., Brea, Calif.), and radioactivity was measured by liquid scintillation counting using Beckman Coulter LS6000IC Scintillation Counter. Data are shown as CPM incorporated compared to the control cells.
(§2) CF-7 cells and MDA-MB-231 cells were seeded out on E-Plates and allowed to settle. Cells were stimulated with MNF. Cellular proliferation and adherence was measured every 15 minutes using xCELLigence RTCA station. The serum-starved cells were incubated with various amounts of (R,R′)-MNF concentrations for 24 hours and the levels of [3H]thymidine incorporation were measured.

MDA-MB-231 cells = assay: [3H]-thymidine incorporation assay in MDA-MB-231 cells; format: cell-based, Human; conditions: serum-starved, 24 hours, with MNF
Description: as §1, §2

Cc1c(C(=O)NN2CCCCC2)nn(-c2ccc(Cl)cc2Cl)c1-c1ccc(I)cc1 [AM251, 1-(2,4-dichlorophenyl)-5-(4-iodophenyl)-4-methyl-N-(1-piperidyl)pyrazole-3-carboxamide]
blocking of the inhibitory effect of MNF on [3H]thymidine incorporation (MCF-7 cells): blocked | blocking of the inhibitory effect of MNF on [3H]thymidine incorporation (MDA-MB-231 cells): blocked
